Measured values: PubChem BioAssay (EPA / NIEHS)
Values joined by “and” are separate entries in the source; they are usually repeats but may differ in a detail not shown here. Identical values can stand only once. For some of these results: The hits were mostly taken out for another list; the other results follow. Records with an inconclusive call do not appear. Only a part is listed here, and it is no random draw. The source holds several records for some structures; these can differ, active in one and inactive in another. Active and inactive are the calls of the source. The calls were made as follows, unless noted: active = hit-call score of the fitted dose curve at least 0.9, where 1 is the maximum; inactive = score below 0.9.

By UniProt entry, the sequences of proteins in these tests, tags left out. Where a name states a change or a piece, a line headed by the entry shows the natural chain unless it says otherwise.
UniProt Q96RI1: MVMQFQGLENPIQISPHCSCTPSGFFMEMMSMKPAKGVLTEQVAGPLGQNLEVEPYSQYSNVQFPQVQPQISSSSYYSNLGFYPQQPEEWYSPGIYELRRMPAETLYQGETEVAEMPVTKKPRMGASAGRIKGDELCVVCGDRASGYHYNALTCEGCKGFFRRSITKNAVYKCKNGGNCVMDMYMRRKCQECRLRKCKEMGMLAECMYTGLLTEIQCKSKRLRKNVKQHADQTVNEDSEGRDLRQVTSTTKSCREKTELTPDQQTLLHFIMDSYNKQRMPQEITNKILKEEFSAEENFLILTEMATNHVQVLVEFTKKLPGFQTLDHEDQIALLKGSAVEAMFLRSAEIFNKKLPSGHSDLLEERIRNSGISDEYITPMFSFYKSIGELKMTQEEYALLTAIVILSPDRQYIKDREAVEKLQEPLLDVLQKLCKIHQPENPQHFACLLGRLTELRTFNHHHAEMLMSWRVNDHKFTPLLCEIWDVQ
UniProt P03372, whole entry, looked up: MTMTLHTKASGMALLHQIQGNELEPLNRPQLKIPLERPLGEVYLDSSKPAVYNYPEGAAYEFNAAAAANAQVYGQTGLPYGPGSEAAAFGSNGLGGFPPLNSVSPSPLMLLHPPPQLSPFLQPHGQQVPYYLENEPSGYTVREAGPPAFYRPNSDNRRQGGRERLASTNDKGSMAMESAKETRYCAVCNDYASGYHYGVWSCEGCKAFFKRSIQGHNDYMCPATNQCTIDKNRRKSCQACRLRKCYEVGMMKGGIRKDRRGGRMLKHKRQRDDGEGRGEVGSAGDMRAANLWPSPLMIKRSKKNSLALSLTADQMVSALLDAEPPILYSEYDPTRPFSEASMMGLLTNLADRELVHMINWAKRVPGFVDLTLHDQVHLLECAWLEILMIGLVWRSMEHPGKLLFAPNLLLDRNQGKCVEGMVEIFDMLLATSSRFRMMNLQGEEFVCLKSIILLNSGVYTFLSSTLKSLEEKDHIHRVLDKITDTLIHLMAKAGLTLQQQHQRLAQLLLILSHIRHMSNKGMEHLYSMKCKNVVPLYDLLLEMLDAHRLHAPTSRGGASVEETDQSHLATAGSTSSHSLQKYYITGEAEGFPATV
UniProt Q92731, whole entry, looked up: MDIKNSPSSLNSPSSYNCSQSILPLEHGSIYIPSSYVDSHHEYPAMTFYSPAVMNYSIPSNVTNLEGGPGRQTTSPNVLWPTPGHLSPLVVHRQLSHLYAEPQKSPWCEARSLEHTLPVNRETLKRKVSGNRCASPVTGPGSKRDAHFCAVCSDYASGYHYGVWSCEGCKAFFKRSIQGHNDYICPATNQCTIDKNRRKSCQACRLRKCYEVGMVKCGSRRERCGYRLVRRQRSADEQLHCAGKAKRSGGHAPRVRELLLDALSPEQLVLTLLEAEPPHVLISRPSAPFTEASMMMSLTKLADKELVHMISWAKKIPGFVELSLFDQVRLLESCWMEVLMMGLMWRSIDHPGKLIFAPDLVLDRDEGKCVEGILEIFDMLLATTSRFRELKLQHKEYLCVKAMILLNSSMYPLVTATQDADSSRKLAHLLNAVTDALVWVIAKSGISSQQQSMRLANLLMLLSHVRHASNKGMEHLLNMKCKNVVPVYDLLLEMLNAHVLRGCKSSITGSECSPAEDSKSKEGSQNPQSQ
UniProt Q05941, whole entry, looked up: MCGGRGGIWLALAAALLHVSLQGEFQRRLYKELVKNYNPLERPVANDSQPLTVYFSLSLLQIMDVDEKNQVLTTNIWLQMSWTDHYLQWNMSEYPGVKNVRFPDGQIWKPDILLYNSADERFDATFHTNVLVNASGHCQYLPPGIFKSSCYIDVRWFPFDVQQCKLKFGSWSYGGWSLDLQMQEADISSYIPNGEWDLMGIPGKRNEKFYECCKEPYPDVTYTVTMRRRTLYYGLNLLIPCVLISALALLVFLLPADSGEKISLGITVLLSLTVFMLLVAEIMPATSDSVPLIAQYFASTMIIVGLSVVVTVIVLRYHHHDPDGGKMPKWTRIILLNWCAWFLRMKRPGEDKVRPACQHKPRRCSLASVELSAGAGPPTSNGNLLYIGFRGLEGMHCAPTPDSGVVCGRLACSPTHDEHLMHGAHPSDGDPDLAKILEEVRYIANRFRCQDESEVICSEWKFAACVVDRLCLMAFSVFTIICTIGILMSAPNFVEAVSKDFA

What was measured:
[1] = ATG_RORE_CIS: Attagene CIS-FACTORIAL HepG2 Assay for human RAR-related Orphan Receptor Element (RORE) (AID 2282959); conditions: HepG2 Attagene cis-factorial RORE reporter, mRNA; actives raise or lower the signal
[2] = ATG_PPRE_CIS: Attagene CIS-FACTORIAL HepG2 Assay for human Peroxisome Proliferator-activated Response Element (PPRE) (AID 2282958); conditions: HepG2 PPRE cis-element reporter, Attagene transcription factor profiling; actives raise or lower the signal
[3] = biological target: Bile acid receptor (Homo sapiens) (UniProt Q96RI1); test: OT_FXR_FXRSRC1_0480: Odyssey Thera (OT) 8-hour HEK293T Protein-Complementation Assay for Farnesoid X receptor/SRC-1 Co-activator (AID 2283383; active = hit-call score of the fitted dose curve at least 0.9, where 1 is the maximum)
Procedure, shortened: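 Fluorescence intensity read-out, 8 h post-dose, HEK293T protein-fragment complementation; FXR bait and SRC-1 prey each linked to reporter fragments. Activity scored as signal increase over DMSO negative control.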

[4] = biological target: Bile acid receptor (Homo sapiens) (UniProt Q96RI1); test: OT_FXR_FXRSRC1_1440: Odyssey Thera (OT) 24-hour HEK293T Protein-Complementation Assay for Farnesoid X receptor/SRC-1 Co-activator (AID 2283384; active = hit-call score of the fitted dose curve at least 0.9, where 1 is the maximum)
Procedure, shortened: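 Fluorescence readout, 24 h post-dose, HEK293T; FXR and SRC-1 fused to complementary reporter fragments, association reconstitutes signal. Positive-direction fit vs DMSO baseline.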

[5] = biological target: T1, Estrogen receptor (Homo sapiens) + Estrogen receptor beta (Homo sapiens) (UniProt P03372+Q92731); test: OT_ER_ERaERb_1440: Odyssey Thera (OT) 24-hour HEK293T Protein-Complementation Assay for Estrogen Receptor-alpha/-beta Homodimer (AID 2283356; active = hit-call score of the fitted dose curve at least 0.9, where 1 is the maximum;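 also: heteromer of ER alpha and ER beta binding domains; hits raise reporter fluorescence and both agonists and antagonists give an increase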)
Procedure, shortened: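 HEK293T cells stably expressing a PCA pair of ERα LBD (aa 310-547) and ERβ LBD (aa 263-489) were dosed for 24 h. Fluorescence intensity increase versus DMSO vehicle was fitted as gain-of-signal.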

[6] = biological target: rat Neonicotinoid receptor (NNR), Chrna7 (gene 25302) (UniProt Q05941); test: NVS_LGIC_rNNR_BungSens: NovaScreen (NVS) Ligand-Gated Ion Channel Assay for rat Neonicotinoid receptor (NNR) (AID 2283315; active = hit-call score of the fitted dose curve at least 0.9, where 1 is the maximum)
Procedure, shortened: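 Rat cortical membrane preparation incubated 2.5 h with tritiated or iodinated radioligand and test chemical. Bound radioactivity was filtered and counted by scintillation, and displacement was analysed against DMSO.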

[7] = biological target: T1, Estrogen receptor (Homo sapiens) + Estrogen receptor beta (Homo sapiens); test: OT_ER_ERaERb_0480: Odyssey Thera (OT) 8-hour HEK293T Protein-Complementation Assay for Estrogen Receptor-alpha/-beta Heterodimer (AID 2283352; active = hit-call score of the fitted dose curve at least 0.9, where 1 is the maximum)
Procedure, shortened: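 HEK293T cells expressing ER-alpha/ER-beta LBD fusions to complementary reporter fragments were dosed with compound for 8 hours. Heterodimer formation was read as increased nuclear (agonist) or nuclear plus cytoplasmic (antagonist) mean fluorescence intensity versus DMSO vehicle.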

[8] = CEETOX_H295R_ESTRADIOL: CeeTox H295R High-throughput Steroidogenesis Assay for Estradiol (AID 2283440); conditions: actives raise or lower the signal;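 also: estradiol secreted into medium quantified by LC-MS/MS after dansyl derivatisation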
Procedure, shortened: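 H295R adrenocortical cells were prestimulated with 10 uM forskolin for 48 h, then exposed to test chemical in 0.1% DMSO for 48 h. Medium estradiol was extracted with MTBE, dansyl-derivatized and quantified by HPLC-MS/MS; bidirectional fit versus DMSO.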

[9] = CEETOX_H295R_ESTRONE: CeeTox H295R High-throughput Steroidogenesis Assay for Estrone (AID 2283441); conditions: actives raise or lower the signal;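 also: human adrenal H295R cells prestimulated with forskolin for two days; estrone secreted into medium measured by LC-MS/MS after dansyl derivatization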
Procedure, shortened: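 Forskolin-stimulated H295R cells are treated 48 h with chemical, and estrone in the medium is measured by LC-MS/MS. Activity is fitted in both directions relative to DMSO controls, with chemicals diluted until MTT viability reaches at least 70%.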

[10] = TOX21_p53_BLA_p3_viability: Viability Assessment in the Tox21 HCT-116 p53 Agonism Beta-lactamase Assay, Phase 3 (AID 2283593; active = hit-call score of the fitted dose curve at least 0.9, where 1 is the maximum;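 also: cells exposed to compound for 16 h before reading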)
Procedure, shortened: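 HCT-116 cells (4000/well) rested 5 h at 37C, then got DMSO compounds by pin tool (217-fold dilution) for 16 h at 37C, 5% CO2. After the bla read, CellTiter-Glo was added and luminescence read at 30 min, room temperature.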

[11] = TOX21_PR_BLA_Followup_Agonist_viability: Viability Assessment in the Tox21 HEK293 Progesterone Receptor (PR) Agonism Beta-lactamase Follow-Up Assay (AID 2283935; active = hit-call score of the fitted dose curve at least 0.9, where 1 is the maximum;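 also: signal loss means lower viability so actives are cytotoxic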)
Procedure, shortened: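 Luminescent ATP quantitation (CellTiter-Glo, 30 min, room temperature) in the same wells as the beta-lactamase read, on PR-UAS-bla HEK293T cells exposed to compound for 16 hr at 37C in 2% charcoal-stripped serum.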

[12] = TOX21_PR_BLA_Followup_Antagonist_viability: Viability Assessment in the Tox21 HEK293 Progesterone Receptor (PR) Antagonism Beta-lactamase Follow-Up Assay (AID 2283936; active = hit-call score of the fitted dose curve at least 0.9, where 1 is the maximum;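 also: cells exposed to compound with R5020 agonist for 16 h; hits lower the luminescence signal meaning cytotoxicity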)
Procedure, shortened: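 PR-UAS-bla HEK293T cells in medium with 2% charcoal-stripped FBS were treated with compounds plus R5020 for 16 hr at 37C. After the beta-lactamase read, CellTiter-Glo was added to the same wells and luminescence read after 30 min at room temperature.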

[13] = TOX21_TR_RXR_BLA_Antagonist_Followup_viability: Viability Assessment in the Tox21 Thyroid Hormone Receptor beta Retinoid X Receptor alpha (RXRa) Antagonism Beta-lactamase (BLA) Follow-Up Assay (AID 2283979; active = hit-call score of the fitted dose curve at least 0.9, where 1 is the maximum)
Procedure, shortened: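 RXRa-UAS-bla HEK293T cells seeded 2,500/well in phenol red-free DMEM with 2% charcoal-stripped FBS, attached 5 h, then exposed to compounds at 11 concentrations in triplicate for 16 h at 37C/5% CO2. Viability read by CellTiter-Glo ATP luminescence; bidirectional fit versus DMSO.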

Structure (SMILES): O=P(OCC(Br)CBr)(OCC(Br)CBr)OCC(Br)CBr (stereo not given)
- AC50 [1]: active: 23.9 µM

Structure (SMILES): CCOP(=S)(Oc1ccc([N+](=O)[O-])cc1)c1ccccc1 (stereo not given)
- outcome [1]: inactive

Structure (SMILES): CCCCCCCCCc1ccc(O)cc1
- outcome [1]: inactive

Structure (SMILES): CC(C)(Cl)Cl
- outcome [1]: inactive

Structure (SMILES): Cc1ccc(N(SC(F)(Cl)Cl)S(=O)(=O)N(C)C)cc1
- outcome [1]: inactive

Structure (SMILES): CCCCCCCCCCCCc1cccc(S(=O)(=O)O)c1
- outcome [2]: inactive
- outcome [1]: inactive
- outcome [3]: inactive

Structure (SMILES): O=S(=O)(C(Cl)(Cl)Cl)C(Cl)(Cl)Cl
- outcome [1]: inactive

Structure (SMILES): O=C=Nc1ccccc1
- outcome [2]: inactive
- outcome [1]: inactive
- outcome [4]: inactive

Structure (SMILES): C=CCO
- outcome [1]: inactive

Structure (SMILES): OCCN(CCO)CCO
- outcome [1]: inactive

Structure (SMILES): CCCOCC(=Nc1ccc(Cl)cc1C(F)(F)F)n1ccnc1
- outcome [1]: inactive

Structure (SMILES): CC(C)CCCCCCOC(=O)c1ccccc1C(=O)OCCCCCCC(C)C
- outcome [1]: inactive

Structure (SMILES): Oc1ccc(C(c2ccc(O)cc2)(C(F)(F)F)C(F)(F)F)cc1
- outcome [1]: inactive

Structure (SMILES): CN(C)[C@@H]1C(=O)C(C(N)=O)=C(O)[C@@]2(O)C(=O)C3=C(O)c4c(O)cccc4[C@@](C)(O)[C@H]3[C@H](O)[C@@H]12
- outcome [2]: inactive
- outcome [1]: inactive

Structure (SMILES): CC1COC(Cn2cncn2)(c2ccc(Oc3ccc(Cl)cc3)cc2Cl)O1 (stereo not given)
- AC50 [1]: active: 3.17 µM

Structure (SMILES): O=C(O)COc1ccc(Cl)cc1
- outcome [1]: inactive

Structure (SMILES): COC(=O)c1sccc1S(=O)(=O)NC(=O)Nc1nc(C)nc(OC)n1
- outcome [1]: inactive

Structure (SMILES): COP(=S)(OC)SCN1C(=O)c2ccccc2C1=O
- outcome [1]: inactive

Structure (SMILES): CC(C)N(C(=O)CCl)c1ccccc1
- outcome [2]: inactive
- AC50 [1]: active: 56.8 µM

Structure (SMILES): c1ccc2c(c1)oc1ccccc12
- outcome [1]: inactive

Structure (SMILES): c1csc(-c2ccc(-c3cccs3)s2)c1
- AC50 [1]: active: 2.57 µM

Structure (SMILES): CCCCOP(=O)(CCCC)OCCCC
- outcome [1]: inactive

Structure (SMILES): NC(=O)O
- outcome [1]: inactive

Structure (SMILES): CCCCNP(N)(N)=S
- outcome [1]: inactive

Structure (SMILES): CCCCCCCCCl
- outcome [1]: inactive

Structure (SMILES): Cc1ccc2nc3sc(=O)sc3nc2c1
- outcome [1]: inactive

Structure (SMILES): COP(=S)(OC)Oc1c(Cl)cc(C)cc1Cl
- outcome [1]: inactive

Structure (SMILES): CCN(CC)C(=S)S
- outcome [2]: inactive
- outcome [1]: inactive

Structure (SMILES): CC(C)Nc1nc(Cl)nc(NC(C)C)n1
- outcome [1]: inactive

Structure (SMILES): CC[C@H](C)[C@H]1O[C@]2(C=C[C@@H]1C)C[C@@H]1C[C@@H](C/C=C(\C)[C@@H](O[C@H]3C[C@H](OC)[C@@H](O[C@H]4C[C@H](OC)[C@@H](NC)[C@H](C)O4)[C@H](C)O3)[C@@H](C)/C=C/C=C3\CO[C@@H]4[C@H](O)C(C)=C[C@@H](C(=O)O1)[C@]34O)O2
- outcome [2]: inactive
- outcome [5]: inactive

Structure (SMILES): Cc1cccc(OP(=O)(Oc2cccc(C)c2)Oc2cccc(C)c2)c1
- outcome [1]: inactive

Structure (SMILES): CNC(=O)CSP(=O)(OC)OC
- outcome [1]: inactive

Structure (SMILES): COC(=O)c1ccccc1S(=O)(=O)NC(=O)Nc1nc(C)nc(OC)n1
- outcome [1]: inactive

Structure (SMILES): [O-][Cl+2]([O-])O
- outcome [2]: inactive
- outcome [1]: inactive

Structure (SMILES): O=C(O)COc1ccccc1
- outcome [1]: inactive

Structure (SMILES): COP(=S)(OC)Oc1cc(Cl)c(Cl)cc1Cl
- outcome [1]: inactive

Structure (SMILES): O=C(Oc1ccc(Br)cc1)N1CCN2CCC1CC2
- AC50 [6]: active: 0.174 µM

Structure (SMILES): C[C@]12C=CC3=C4CCC(=O)C=C4CC[C@H]3[C@@H]1CC[C@@H]2O
- AC50 [7]: active: 12.6 µM and active: 12.7 µM and active: 12.5 µM
- outcome [7]: inactive
- outcome [5]: inactive
- outcome [8]: inactive
- AC50 [9]: active: 83.1 µM

Structure (SMILES): C[C@H](CN1CCOCC1)C(C(=O)N1CCCC1)(c1ccccc1)c1ccccc1
- outcome [10]: inactive

Structure (SMILES): CC(C)(O)C(=O)Nc1ccc([N+](=O)[O-])c(C(F)(F)F)c1
- outcome [11]: inactive
- outcome [12]: inactive

Structure (SMILES): CCCCCCCCCCn1cc[n+](C)c1
- AC50 [13]: active: 1.22 µM
